Source: PubChem BioAssay AID1778 (Sanford-Burnham Center for Chemical Genomics, 2009)
This is a selection; strong and weak results do not stand in their true shares. Potency and affinity values are given separately. Activity calls are given as the source filed them. Cut-off read from the data, not from the text of the source: active = inhibition above about 50%; inactive = the rest.

The chains behind the UniProt entries cited, without tags or fusion partners.
UniProt P41145, whole entry: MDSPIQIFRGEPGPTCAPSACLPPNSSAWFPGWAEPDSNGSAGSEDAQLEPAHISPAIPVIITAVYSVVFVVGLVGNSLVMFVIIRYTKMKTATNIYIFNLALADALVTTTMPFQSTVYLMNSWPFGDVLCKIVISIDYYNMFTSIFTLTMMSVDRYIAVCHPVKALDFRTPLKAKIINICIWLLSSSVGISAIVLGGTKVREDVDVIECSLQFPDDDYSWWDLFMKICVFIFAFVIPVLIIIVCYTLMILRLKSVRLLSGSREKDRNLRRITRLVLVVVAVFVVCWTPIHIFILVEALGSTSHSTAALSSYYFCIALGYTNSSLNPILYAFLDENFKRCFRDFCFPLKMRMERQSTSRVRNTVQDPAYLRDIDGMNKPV

Target: Kappa-type opioid receptor (Homo sapiens) (UniProt P41145)
Assay: kappa opioid receptor blockers – cell-based, luminescence, uHTS (AID 1778)
Conditions: KOR beta-arrestin recruitment, antagonist mode, at 10 µM, active compounds read high

| SMILES | inhibition |
| --- | --- |
| O=C(NCC1(N2CCCCC2)CCCCC1)c1ccc(=O)[nH]c1 | inactive: 4.3% |
| CC(C)(C)OC(=O)N1CCC(N(C(=O)c2ccccc2)c2ccc(F)cc2)CC1 | inactive: -17.4% |
| COc1ccc(C(=O)NCC2(N3CCCCC3)CCCCC2)c(OC)c1OC | inactive: -19.7% |
| COc1ccc(C(=O)NCC2(N3CCCCC3)CCCCC2)cc1 | inactive: 0% |
| CCOC(=O)N1CCC(Nc2ccc(OC)cc2)CC1 | inactive: -1.1% |
| O=C(OC1CN2CCC1CC2)C1c2ccccc2Oc2ccccc21 (stereo unspecified) | inactive: -1.1% |
| N#CC1(Nc2ccccc2)CCN(Cc2ccccc2)CC1 | inactive: -14.1% |
| O=C(NCC1(N2CCOCC2)CCCCC1)c1cc2ccccc2o1 | inactive: -12.1% |
| Cc1cc(C)cc(N(C(=O)c2ccccc2)C2CCN(C(=O)OC(C)(C)C)CC2)c1 | inactive: 14.2% |
| COc1cc(OC)c(C(=O)NCC2(N(C)C)CCCCC2)cc1OC | inactive: -49.3% |
| CN(C)c1cccc(C(=O)NCC2(N3CCCCC3)CCCCC2)c1 | inactive: -13% |
| CC(C)c1ccc(NC2CCN(C(=O)OC(C)(C)C)CC2)cc1 | inactive: 9.4% |
| CCCOc1ccc(C(=O)NCC2(N(C)C)CCCCC2)cc1OC | inactive: 21.3% |
| O=C(NCC1(N2CCCCC2)CCCCC1)c1cccc([N+](=O)[O-])c1 | inactive: 0.8% |
| N#CC1(Nc2ccccc2)CCN(CCc2ccccc2)CC1 | inactive: -7.4% |
| CCN1CCC(Nc2ccc(Cl)cc2)CC1 | inactive: 8.6% |
| O=C(NCC1(N2CCCCC2)CCCCC1)c1ccc(OC(F)F)cc1 | inactive: -20.5% |
| COc1ccc(NC2CCN(C(=O)OC(C)(C)C)CC2)cc1 | inactive: 8.6% |
| COc1cc(C(=O)NCC2(N3CCCCC3)CCCCC2)ccc1OC(F)F | inactive: -6% |
| O=C(NCC1(N2CCOCC2)CCCCC1)c1cc(=O)[nH]c2ccccc12 | inactive: -46.3% |
| O=C(NCC1(N2CCCCC2)CCCCC1)c1cccc(C(F)(F)F)c1 | inactive: -6% |
